Earlier results as cited in US20070197573A1, “Compositions and methods in the treatment of bone metabolic disorders” (priority 2005, published 2007).

Sequences of proteins named here, by UniProt entry; tags and fusion partners are left off.
UniProt P35372, whole entry, species assumed: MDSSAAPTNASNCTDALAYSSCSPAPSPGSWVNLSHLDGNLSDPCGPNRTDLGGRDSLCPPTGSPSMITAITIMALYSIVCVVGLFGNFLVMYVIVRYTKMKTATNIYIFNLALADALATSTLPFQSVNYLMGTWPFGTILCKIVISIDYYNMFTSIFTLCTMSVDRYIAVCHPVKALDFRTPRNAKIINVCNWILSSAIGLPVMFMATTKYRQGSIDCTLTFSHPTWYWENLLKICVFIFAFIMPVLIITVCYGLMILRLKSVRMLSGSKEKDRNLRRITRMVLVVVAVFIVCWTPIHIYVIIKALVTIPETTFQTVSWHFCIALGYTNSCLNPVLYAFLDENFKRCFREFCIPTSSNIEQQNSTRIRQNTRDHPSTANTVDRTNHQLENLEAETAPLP

Molecular target: μ opioid receptor (Homo sapiens, UniProt P35372)
Conditions: cited from earlier work

## CTAP
  type of activity at receptors exhibiting spontaneous activity: neutral antagonist
